Type in all cases: cell-based
Experiment [1] deals with T1, Estrogen receptor (Homo sapiens, UniProt P03372). Briefly: Agonist activity at human Gal4-fused ER-alpha expressed in HEK293 cells at 10 uM by luciferase reporter gene assay relative to 17beta-estradiol. In a few lines:
(§1)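 Agonist mode: HEK293 cells in phenol-red-free DMEM with 5% FBS, 37 °C, 5% CO2, calcium phosphate cotransfected with GAL4-responsive MH100(UAS)x4-tk-LUC reporter, ER receptor fragment plasmid and beta-galactosidase plasmid. Compound added 8 h post-transfection, cells harvested 16–20 h later. Luciferase normalized to beta-galactosidase, triplicate means.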
Background: In a reporter assay the amount or activity of a reporter protein is the signal.

By UniProt entry, the sequences of proteins in these tests, tags left out.
UniProt P03372, whole entry: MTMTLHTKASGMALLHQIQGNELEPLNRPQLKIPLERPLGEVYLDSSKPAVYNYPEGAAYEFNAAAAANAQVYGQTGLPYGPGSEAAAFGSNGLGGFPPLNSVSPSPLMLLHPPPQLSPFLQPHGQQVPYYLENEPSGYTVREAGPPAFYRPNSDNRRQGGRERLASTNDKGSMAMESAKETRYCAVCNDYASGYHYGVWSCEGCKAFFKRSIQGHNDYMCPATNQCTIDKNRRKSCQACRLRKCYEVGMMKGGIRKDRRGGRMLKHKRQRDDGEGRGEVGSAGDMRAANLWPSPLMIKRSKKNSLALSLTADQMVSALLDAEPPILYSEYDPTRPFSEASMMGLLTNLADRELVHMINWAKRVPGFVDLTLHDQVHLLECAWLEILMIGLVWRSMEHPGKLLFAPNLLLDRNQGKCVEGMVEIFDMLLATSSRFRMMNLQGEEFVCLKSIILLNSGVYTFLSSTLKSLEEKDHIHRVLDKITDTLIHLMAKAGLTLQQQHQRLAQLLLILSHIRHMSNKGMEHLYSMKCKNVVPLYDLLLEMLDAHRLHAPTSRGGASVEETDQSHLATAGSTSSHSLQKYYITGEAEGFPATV
UniProt Q92731, whole entry: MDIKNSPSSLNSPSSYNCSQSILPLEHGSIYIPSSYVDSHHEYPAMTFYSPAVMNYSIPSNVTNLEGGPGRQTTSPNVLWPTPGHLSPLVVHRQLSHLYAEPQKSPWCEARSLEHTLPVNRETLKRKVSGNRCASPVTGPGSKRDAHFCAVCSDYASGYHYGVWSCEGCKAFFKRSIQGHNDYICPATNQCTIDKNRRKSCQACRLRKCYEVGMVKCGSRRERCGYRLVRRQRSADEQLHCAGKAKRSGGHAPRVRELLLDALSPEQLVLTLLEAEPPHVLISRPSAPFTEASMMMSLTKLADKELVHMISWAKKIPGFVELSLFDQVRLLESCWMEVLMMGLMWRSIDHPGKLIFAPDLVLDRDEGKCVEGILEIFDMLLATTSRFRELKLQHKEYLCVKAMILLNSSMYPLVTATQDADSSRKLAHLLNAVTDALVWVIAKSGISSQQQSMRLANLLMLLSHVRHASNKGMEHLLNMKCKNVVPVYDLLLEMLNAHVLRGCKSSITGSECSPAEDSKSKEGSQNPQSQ

The target of experiment [2] is T1, Estrogen receptor. Briefly: Antagonist activity at human Gal4-fused ER-alpha expressed in HEK293 cells assessed as inhibition of 17beta-estradiol-induced effect at 3 uM by luciferase reporter gene assay. In a few lines: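 Antagonist mode in transfected HEK293 GAL4-ER luciferase system, with cells co-treated with 0.3 nM 17beta-estradiol. Compound added 8 h post-transfection, 16–20 h treatment, luciferase normalized to beta-galactosidase, triplicate means.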

For another experiment, the target named is Estrogen receptor beta (Homo sapiens, UniProt Q92731). Briefly: Agonist activity at human Gal4-fused ER-beta expressed in HEK293 cells at 10 uM by luciferase reporter gene assay relative to 17beta-estradiol. A digest of the protocol:
as §1

For orientation: inhibition means the drop in the measured response relative to a control, in per cent. `NS(=O)(=O)Oc1ccc(Sc2ccc(OS(N)(=O)=O)cc2)cc1` registered an Activity on Estrogen receptor [1] of 100%. Besides, the inhibition at Estrogen receptor [2] was determined as 37.5%.

`C[Si](C)(c1ccc(O)cc1)c1ccc(O)cc1` came in with an Activity at Estrogen receptor beta of 33.5%.

For `NS(=O)(=O)Oc1ccc(Cc2ccc(OS(N)(=O)=O)cc2)cc1`, at Estrogen receptor [2], the inhibition is 55.3%.

The values are drawn from ChEMBL document CHEMBL3232760, “Design and synthesis of silicon-containing steroid sulfatase inhibitors possessing pro-estrogen antagonistic character” (Bioorg Med Chem, 2014).
